{"sequences": {"note": "Protein sequences, listed by entry. Tags and fused reporters are not part of them. Lines headed by an entry give the natural chain unless they say otherwise; changes in a name come on top.", "UniProt Q99572": "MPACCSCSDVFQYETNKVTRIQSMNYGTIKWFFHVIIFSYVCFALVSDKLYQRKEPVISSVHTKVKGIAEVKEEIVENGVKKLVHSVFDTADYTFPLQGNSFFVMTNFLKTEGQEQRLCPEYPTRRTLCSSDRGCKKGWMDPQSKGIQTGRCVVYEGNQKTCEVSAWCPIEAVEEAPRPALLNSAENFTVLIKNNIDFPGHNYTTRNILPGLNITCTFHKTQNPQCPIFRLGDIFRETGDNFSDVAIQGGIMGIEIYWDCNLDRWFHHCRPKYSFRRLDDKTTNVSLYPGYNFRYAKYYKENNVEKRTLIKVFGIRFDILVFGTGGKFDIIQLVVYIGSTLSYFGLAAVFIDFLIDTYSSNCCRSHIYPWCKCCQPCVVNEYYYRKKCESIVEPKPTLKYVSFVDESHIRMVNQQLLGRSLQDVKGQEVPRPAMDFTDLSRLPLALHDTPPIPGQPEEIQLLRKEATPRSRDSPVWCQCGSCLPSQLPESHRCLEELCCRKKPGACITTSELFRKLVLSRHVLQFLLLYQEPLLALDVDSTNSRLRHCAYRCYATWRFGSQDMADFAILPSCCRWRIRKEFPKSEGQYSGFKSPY"}, "source": "patent US9718812B2", "about": "“Substituted thiazole or oxazole P2X7 receptor antagonists” (Axxam S.P.A., priority 2014, dated 2017)", "type_in_all_cases": "cell-based", "key": {"[1]": {"biological_target": "T1, P2X7 receptor (Homo sapiens (Human), UniProt Q99572)", "experiment": "human P2X7 channel assay by automated patch-clamp (QPatch 16X)", "settings": "HEK-293 cells expressing P2X7 channels, 100 microM BzATP, held at -80 mV, read-out: hP2X7 (IC50; nM)", "method": "In order to directly monitor the block of P2X7 channel, an electrophysiological assay was developed and implemented on the QPatch 16X automated electrophysiology instrument.\nHEK-293 cells expressing the P2X7 channels were cultured in modified EMEM.\n72 hours before experiment, 5 million cells were seeded onto T225 flasks. Just before the experiment cells were washed twice, detached from the flask with trypsin-EDTA, re-suspended in the suspension solution and placed on the QPatch 16x.\nThe compounds (20 mM in a 100% DMSO) stored at −20° C. were prepared the day of the experiment (a first dilution 1:20 in 100% DMSO to prepare a 1 mM stock solution, then a 1 microM solution in external solution+a serial dilution 1:10).\nThe standard whole-cell voltage clamp experiments were performed at room temperature. For these experiments the multihole technology was used and the data were sampled at 2 KHz.\nThe intracellular solution contained (mM) 135 CsF, 10 NaCl, 1 EGTA, 10 HEPES, (pH 7.2 with CsOH) whereas the extracellular contained (mM) 145 NaCl, 4 KCl, 0.5 MgCl2, 1 CaCl2, 10 HEPES, 10 Glc (pH 7.4 with NaOH).\nAfter establishment of the seal and the passage in the whole cell configuration, the cells were held at −80 mV. The P2XR7 current was evoked by applying 100 microM of BzATP alone (4 times) and then in the presence increasing concentrations of the compound under investigation (1, 10, 100 and 1000 nM).\nThe pre-incubation periods 5 to 8 contain increasing concentrations of the compound of interest (1, 10, 100 and 1000 nM), as illustrated in Figure (application protocol).\nThe maximal inward current evoked by BzATP in absence or presence of increasing concentrations of the compounds under investigation was measured and normalized. The potential agonist effect was measured as % of control and as IC50 determined fitting the dose-response curves data with the following equation: Y=100/(1+10^((Log IC50−X)*HillSlope))\nY: normalized response, 100% down to 0%, decreasing as X increases.\nLog IC50: same log units as X\nHillSlope: slope factor or HS, unitless"}, "[2]": {"biological_target": "P2X7 receptor (hP2X7) (Homo sapiens (Human), UniProt Q99572)", "experiment": "Screen Quest Fluo-8 No Wash Calcium Assay (Bz-ATP-induced Ca2+ influx, FLIPR TETRA)", "settings": "HEK-293 cells stably transfected with P2X7 receptor, Fluo-8 calcium, Low Divalent Cation Assay Buffer", "method": "Extracellular binding of Bz-ATP to P2X7 receptor opens the channel and allows Ca2+ influx into the cells. This Ca2+ entry was measured in HEK-293 cells stably transfected with P2X7 receptor using Screen Quest™ Fluo-8 No Wash Calcium Assay Kit (AAt Bioquest®, cat. 36316). Once inside the cell, the lipophilic blocking groups of Fluo-8 are cleaved by non-specific cell esterases, resulting in a negatively-charged fluorescent dye that stays inside cells. Its fluorescence increases upon binding to calcium. When HEK-293/P2X7 cells are stimulated with Bz-ATP, Ca2+ enters the cells and the fluorescence of Fluo-8 NW increases. The dye has an absorption spectrum compatible with excitation at 488 nm by argon laser sources and its emission wavelength is in the range of 515-575 nm.\nHEK-293 cells stably transfected with P2X7 receptor were seeded overnight in growth medium at 10,000 to 20,000 cells/well in 384-well plate. 24 hours later, the medium was removed and the cells were pre-loaded at RT for 1 hour with 20 μL/w of Fluo-8 NW. Then 10 μL/w of test compounds and reference antagonist A438079 at 3×-concentration were injected with the FLIPRTETRA and the kinetic response over a period of five minutes was monitored. A second injection of 15 μL/w of 3× reference activator (Bz-ATP at EGO was performed with the FLIPRTETRA and the signal of the emitted fluorescence was recorded for additional three minutes. All the experiment was carried out in a Low Divalent Cation Assay Buffer (0.3 mM Ca2+ and 0 mM Mg2+). The effect of the test compounds was measured as percent inhibition vs the reference antagonist and IC50 values were calculated accordingly."}, "[3]": {"biological_target": "T1, P2X7 receptor", "experiment": "YO-PRO-1 Uptake Assay (large pore form, Bz-ATP stimulated)", "settings": "HEK-293 cells stably transfected with P2X7 receptor; Bz-ATP EC80 (30 μM); 5 μM YO-PRO-1", "text": "YO-PRO®-1 is a fluorescent DNA-binding dye with a MW of 374 Da (Molecular Probes®, cat. Y3603). This method is based upon the presumed ability of YO-PRO®-1 to enter through the dilated or “large pore form” of P2X7 receptor and to bind to intracellular DNA whereupon it increases many fold its fluorescence intensity. The dye has an absorption spectrum compatible with excitation at 488 nm by argon laser sources and its emission wavelength is in the range of 515-575 nm. The aim of this assay was to validate the interaction of antagonists with P2X7 receptor using an alternative readout to Ca^2+-sensitive fluorescent dyes.\nHEK-293 cells stably transfected with P2X7 receptor were seeded overnight in growth medium at 20,000 cells/well in 384-well plate. 24 hours later, the medium was removed, the cells were washed with Low Divalent Cation Assay Buffer (0.3 mM Ca2+ and 0 mM Mg2+) and then pre-loaded with 20 μL/w of 5 μM YO-PRO®-1 dye. FLIPRTETRA fluorescence measurement immediately started. Then, 10 μL/w of test compounds and reference antagonist A438079 at 3×-concentration were injected with the FLIPRTETRA and the kinetic response over a period of five minutes was monitored. A second injection of 10 μL/w of 3× Bz-ATP EC80 (30 μM) was performed with the FLIPRTETRA and the signal of the emitted fluorescence was recorded for additional 60 minutes. All the experiment was carried out with a Low Divalent Cation Assay Buffer (0.3 mM Ca^2+ and 0 mM Mg^2+).\nThe effect of the test compounds was measured as percent inhibition vs the reference antagonist and IC50 values were calculated accordingly."}}}
{"smiles": "[2H]c1nc(C)c(C(CNC(=O)c2cc(-c3ncc(F)cn3)ccc2Cl)N2CCC(F)(F)CC2)s1", "note": "(stereo not drawn) [Compound 69, 2-chloro-N-[2-(4,4-difluoropiperidin-1-yl)-2-[4-methyl(^2H)-1,3-thiazol-5-yl]ethyl]-5-(5-fluoropyrimidin-2-yl)benzamide]", "values": [{"measurement": "IC50", "setting": "[1]", "value": 31.4, "unit": "nM"}]}
{"smiles": "Cc1ncsc1C(CNC(=O)c1cc(-c2ncc(F)cn2)ccc1Cl)N1CCC(F)(F)CC1", "note": "(single isomer, unassigned; (-)) [Compound 76, (−)-2-chloro-N-[2-(4,4-difluoropiperidin-1-yl)-2-(4-methyl-1,3-thiazol-5-yl)ethyl]-5-(5-fluoropyrimidin-2-yl)benzamide]", "values": [{"measurement": "IC50", "setting": "[2]", "value": 238, "unit": "nM"}, {"measurement": "IC50", "setting": "[1]", "value": 35.9, "unit": "nM"}, {"measurement": "IC50", "setting": "[3]", "value": 637, "unit": "nM"}]}
{"smiles": "Cc1ncsc1C(CNC(=O)c1cc(-c2ncc(F)cn2)ccc1Cl)N1CCC(F)(F)CC1", "note": "(racemic) [Compound 34, 2-chloro-N-[2-(4,4-difluoropiperidin-1-yl)-2-(4-methyl-1,3-thiazol-5-yl)ethyl]-5-(5-fluoropyrimidin-2-yl)benzamide]", "values": [{"measurement": "IC50", "setting": "[2]", "value": 111, "unit": "nM"}, {"measurement": "IC50", "setting": "[1]", "value": 131, "unit": "nM"}, {"measurement": "IC50", "setting": "[3]", "value": 41, "unit": "nM"}]}
{"smiles": "Cc1ncsc1C(CNC(=O)c1cc(-c2ncc(F)cn2)ccc1Cl)N1CCC(F)(F)CC1", "note": "(single isomer, unassigned; (+)) [Compound 75, (+)-2-chloro-N-[2-(4,4-difluoropiperidin-1-yl)-2-(4-methyl-1,3-thiazol-5-yl)ethyl]-5-(5-fluoropyrimidin-2-yl)benzamide]", "values": [{"measurement": "IC50", "setting": "[2]", "value": 30, "unit": "nM"}, {"measurement": "IC50", "setting": "[3]", "value": 28, "unit": "nM"}]}
